The source made the active and inactive calls.
What was measured:
[1] = target: NAD-dependent protein deacylase sirtuin-5, mitochondrial (Homo sapiens) (UniProt Q9NXA8); test: Activation of SIRT5 in human MDA-MB-231 cells assessed as decrease in succin-ylation of mitochondrial proteins up to 10 uM incubated for 48 hrs by Western blot analysis; type: cell-based; settings: dose microM <=10, time 48.0 hrs
[2] = target: T1, NAD-dependent protein deacetylase sirtuin-2 (Homo sapiens) (UniProt Q8IXJ6); test: Activation of recombinant human SIRT2 assessed as deacetylation activity using Gln-Pro-Lys-Lys(Ac) peptide substrate at 0 to 100 uM by fluorescent assay; settings: dose 0-100 µM
T1 sequence (whole entry): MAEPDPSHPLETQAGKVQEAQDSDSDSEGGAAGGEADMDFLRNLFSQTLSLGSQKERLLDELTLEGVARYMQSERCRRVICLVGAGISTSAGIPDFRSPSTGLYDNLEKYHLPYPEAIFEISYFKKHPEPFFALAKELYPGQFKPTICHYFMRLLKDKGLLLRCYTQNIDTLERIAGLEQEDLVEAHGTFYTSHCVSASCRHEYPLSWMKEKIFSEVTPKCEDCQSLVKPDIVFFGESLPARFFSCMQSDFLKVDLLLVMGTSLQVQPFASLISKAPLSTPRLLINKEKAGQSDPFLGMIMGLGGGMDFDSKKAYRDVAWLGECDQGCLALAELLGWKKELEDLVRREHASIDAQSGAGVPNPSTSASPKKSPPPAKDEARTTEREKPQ

The chains behind the UniProt entries cited, without tags or fusion partners. Where a name states a change or a piece, a line headed by the entry shows the natural chain unless it says otherwise.
UniProt Q9NXA8: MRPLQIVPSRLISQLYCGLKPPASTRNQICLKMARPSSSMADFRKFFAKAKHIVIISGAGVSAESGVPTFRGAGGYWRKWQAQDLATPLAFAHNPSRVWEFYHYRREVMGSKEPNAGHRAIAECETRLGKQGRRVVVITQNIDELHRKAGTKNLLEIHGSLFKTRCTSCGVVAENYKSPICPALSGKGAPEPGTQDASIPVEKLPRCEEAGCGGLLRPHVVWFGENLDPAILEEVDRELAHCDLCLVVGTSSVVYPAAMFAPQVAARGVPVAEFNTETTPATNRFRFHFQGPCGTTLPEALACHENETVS

[3] = target: T2, NAD-dependent protein deacetylase sirtuin-1 (Homo sapiens) (UniProt Q96EB6); test: Binding affinity to human SIRT1 human MDA-MB-231 cells assessed as increase in thermal stability heated for 3 mins up to 1 degC at 10 uM by cellular thermal shift assay; type: tissue-based
T2 sequence (whole entry): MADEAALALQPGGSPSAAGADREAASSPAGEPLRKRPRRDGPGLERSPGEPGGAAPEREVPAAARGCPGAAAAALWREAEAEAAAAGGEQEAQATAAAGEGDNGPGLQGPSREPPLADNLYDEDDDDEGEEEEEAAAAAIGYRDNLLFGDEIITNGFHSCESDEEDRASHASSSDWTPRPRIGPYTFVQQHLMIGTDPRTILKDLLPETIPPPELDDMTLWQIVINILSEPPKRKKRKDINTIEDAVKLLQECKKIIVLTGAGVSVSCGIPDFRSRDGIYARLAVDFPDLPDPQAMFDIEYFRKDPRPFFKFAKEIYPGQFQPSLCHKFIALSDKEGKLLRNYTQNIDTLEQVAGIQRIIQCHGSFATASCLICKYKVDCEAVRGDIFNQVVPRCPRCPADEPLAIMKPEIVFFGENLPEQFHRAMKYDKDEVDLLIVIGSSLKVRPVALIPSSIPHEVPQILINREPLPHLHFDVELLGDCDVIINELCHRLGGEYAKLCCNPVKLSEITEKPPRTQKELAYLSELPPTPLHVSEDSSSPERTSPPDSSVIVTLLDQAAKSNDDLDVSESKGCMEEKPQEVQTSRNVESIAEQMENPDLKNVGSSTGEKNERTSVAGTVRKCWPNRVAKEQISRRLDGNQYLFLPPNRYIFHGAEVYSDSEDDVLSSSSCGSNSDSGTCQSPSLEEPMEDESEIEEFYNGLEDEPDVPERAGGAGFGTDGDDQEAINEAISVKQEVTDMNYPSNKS

[4] = target: T2, NAD-dependent protein deacetylase sirtuin-1 (Homo sapiens); test: Activation of recombinant human SIRT1 assessed as deacetylation activity using Arg-His-Lys-Lys(Ac) peptide substrate at 0 to 100 uM by fluorescent assay; settings: dose 0-100 µM
[5] = target: NAD-dependent protein deacylase sirtuin-5, mitochondrial (Homo sapiens) (UniProt Q9NXA8); test: Activation of recombinant human SIRT5 assessed as deacetylation activity using FLUOR DE LYS-succinyl green substrate at 0 to 100 uM by fluorescent assay; settings: dose 0-100 µM
[6] = target: T1, NAD-dependent protein deacetylase sirtuin-2 (Homo sapiens); test: Binding affinity to human SIRT2 human MDA-MB-231 cells assessed as increase in thermal stability heated for 3 mins up to 1 degC at 10 uM by cellular thermal shift assay; type: tissue-based
[7] = target: NAD-dependent protein deacylase sirtuin-5, mitochondrial (Homo sapiens) (UniProt Q9NXA8); test: Binding affinity to human SIRT5 human MDA-MB-231 cells assessed as increase in thermal stability heated for 3 mins up to 1 degC at 10 uM by cellular thermal shift assay; type: tissue-based

Measured: Activity

CCCCc1oc2ccccc2c1C(=O)c1cc(I)c(OCCCN2CCCC2)c(I)c1
inactive: all assays above

From ChEMBL document CHEMBL4837260, “Structure-Guided Design of a Small-Molecule Activator of Sirtuin-3 that Modulates Autophagy in Triple Negative Breast Cancer” (J Med Chem, 2021)
